Data published in US20260265300A1, “TARGETING PRAC1 IN STEROID HORMONE DRIVEN CANCER” (Fred Hutchinson Cancer Center, priority 2023, published 2026).

Protein sequences, listed by entry. Tags and fused reporters are not part of them. Residues count along the entry.
UniProt P10275, 669-900 limits assumed: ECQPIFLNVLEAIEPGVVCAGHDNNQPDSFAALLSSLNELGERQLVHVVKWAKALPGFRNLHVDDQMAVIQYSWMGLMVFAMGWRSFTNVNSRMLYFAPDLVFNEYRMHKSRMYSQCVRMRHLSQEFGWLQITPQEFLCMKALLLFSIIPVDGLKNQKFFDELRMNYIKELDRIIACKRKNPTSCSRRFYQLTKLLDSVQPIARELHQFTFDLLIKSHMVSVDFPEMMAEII

Biological target: T1, ligand binding domain (LBD) of the androgen receptor (Homo sapiens, UniProt P10275)
T1 construct: made in house; host or cells: bacteria
Assay: TR-FRET assay of AR-PRAC1 interaction
Settings: His-tagged AR LBD with Terbium-labeled anti-His-tag antibodies, FITC-labeled peptide
Description: To identify small molecules that bind to the AR/PRAC1 interface, a scalable TR-FRET assay has been developed that allows the performance of the screens in a 384 well format. The assay combines the time-resolved (TR) measurement of fluorescence with fluorescence resonance energy transfer (FRET). The ligand binding domain (LBD) of the androgen receptor containing a His-tag is expressed in bacteria. Recombinant His-tagged AR is further labeled with Terbium-labeled anti-His-tag antibodies and incubated with FITC-labeled PRACA1 peptides. The binding (i.e., proximity of AR and PRAC1) generates the FRET signal in this assay.
This is the first saleable in vitro assay to determine the interaction of AR and PRAC1. It can be used to test the affinity of modified PRAC1 mimetic peptides and represents a platform technology for screening small molecules that interfere with the AR-PRAC1 interaction.

- FRET signal: dose dependent increase in FRET signal
Sequence: PPRVLFSLIRKHLL [SEQ ID NO:9]
